By IC50 is commonly meant the concentration needed to halve the response being measured. Low readings indicate greater potency, high ones weaker potency.

Amino acid sequences for entries named in this document (tags omitted). Residues count along the entry.
UniProt P25774, 115-331: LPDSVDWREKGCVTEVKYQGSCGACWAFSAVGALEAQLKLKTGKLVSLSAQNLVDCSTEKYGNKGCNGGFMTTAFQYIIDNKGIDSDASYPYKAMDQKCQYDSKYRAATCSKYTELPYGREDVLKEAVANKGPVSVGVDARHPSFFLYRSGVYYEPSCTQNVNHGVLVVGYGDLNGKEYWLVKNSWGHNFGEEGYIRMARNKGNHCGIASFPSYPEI

These results are taken from patent publication US8822505B2, “Azetidine derivatives” (Hoffmann-La Roche Inc., priority 2012, dated 2014).

The target of this assay is human Cat S (Homo sapiens (Human), UniProt P25774). Description: Cathepsin enzyme inhibition assay (human Cat S). It is filed as biochemical. The settings on record: enzyme 1 nM, substrate Z-Val-Val-Arg-AMC 20 μM, pH 6.5. How it is done:
Cathepsin Enzyme Inhibition Assay
Enzyme activity is measured by observing the increase in fluorescence intensity caused by cleavage of a peptide substrate containing a fluorophore whose emission is quenched in the intact peptide.
Assay buffer: 100 mM potassium phosphate pH 6.5, EDTA-Na 5 mM, Triton X-100 0.001%, DTT 5 mM.
Enzymes (all at 1 nM): human and mouse Cathepsin S, Cat K, Cat B, Cat L.
Substrate (20 μM): Z-Val-Val-Arg-AMC, except for Cat K which uses Z-Leu-Arg-AMC (both from Bachem).
Excitation 360 nm, Emission 465 nm.
Enzyme is added to the substance dilutions in 96-well microtitre plates and the reaction is started with substrate. […] IC50 are calculated by standard methods.
Inhibition of human Cat S, mouse Cat S, human Cat K, human Cat B, human Cat L and mouse Cat L have been measured separately.

Molecule `N#CC1(NC(=O)[C@@H]2C[C@@H](S(=O)(=O)c3ccc(OCC(F)(F)F)cc3Cl)CN2C(=O)C2(c3ccc(Cl)cn3)CNC2)CC1` [Example 6, (2S,4R)-1-[3-(5-Chloro-pyridin-2-yl)-azetidine-3-carbonyl]-4-[2-chloro-4-(2,2,2-trifluoro-ethoxy)-benzenesulfonyl]-pyrrolidine-2-carboxylic acid (1-cyano-cyclopropyl)-amide] showed an IC50 of 3.16 nM. To `C[C@H](Oc1ccc(S(=O)(=O)[C@@H]2C[C@@H](C(=O)NC3(C#N)CC3)N(C(=O)C3(c4ncc(Cl)cc4F)CCN3C(=O)OC(C)(C)C)C2)c(Cl)c1)C(F)(F)F` (stereo partly drawn) [Example 28, tert-butyl 2-(5-chloro-3-fluoropyridin-2-yl)-2-((2S,4R)-4-(2-chloro-4-((S)-1,1,1-trifluoropropan-2-yloxy)phenylsulfonyl)-2-(1-cyanocyclopropylcarbamoyl)pyrrolidine-1-carbonyl)azetidine-1-carboxylate] belongs 1.08 nM.
